Earlier results on one compound are cited in patent US5332726A, “Antithrombotic peptides and pseudopeptides” (Rhone-Poulenc Rorer Pharmaceuticals Inc., priority 1992, dated 1994).

SMILES strings stand for the structures.

The data set deals with human platelets. The note with it: cited from earlier work.

Regarding `N=C(N)NCCC[C@H](NC(=O)[C@@H]1CCCN1C(=O)CN)C(=O)N1CCC[C@H]1C(=O)O` [glycyl-L-prolyl-L-arginyl-L-proline], the “inhibits fibrinogen binding to human platelets” value was “inhibits fibrinogen binding to human platelets”.
